# In patent publication US20070074295A1 (priority 2000, published 2007):
# Tested on: parvalbumin mRNA
# Test: Parvalbumin mRNA in situ hybridisation in chronic PCP model
# Type: in vivo, rat
# Conditions: chronic PCP treatment, alone or with clozapine or haloperidol
# Source text: In order to validate further this chronic PCP model the effect of this treatment paradigm on parvalbumin mRNA expression was investigated. A decrease in parvalbumin mRNA was observed after chronic PCP treatment within the prelimbic region of the prefrontal cortex (controls 0.0717±0.0011, PCP 0.0536±0.0023 relative optical density (ROD)). This PCP-induced decrease was reversed by clozapine (0.0693±0.0050 ROD) but not by haloperidol (0.0557±0.0022 ROD) . PCP produced a significant decrease in parvalbumin mRNA within the ventral reticular nucleus of the thalamus (controls 0.6416±0.0122, PCP 0.5032±0.0194 ROD) which was reversed by both clozapine (0.6354±0.0173 ROD) and haloperidol (0.06199±0.0137) (see FIG. 12). This decrease in parvalbumin expression is in agreement with studies of schizophrenic post mortem tissue within the prefrontal cortex (Beasley & Reynolds, 1997) and anterior thalamus (Danos et al, 1998). The ability of clozapine but not haloperidol to reverse the decrease in parvalbumin expression in the prefrontal cortex is consistent with its ability to alleviate the cognitive deficits/negative symptoms in schizophrenia. Thus, reversal of parvalbumin deficits may be a useful marker for detecting atypical antipsychotic activity.
# In situ hybridisation: a 45mer oligonucleotide probe was designed against bases 223-267 of the rat parvalbumin gene (GenBank accession number A819345). In situ hybridisation was carried out according to the method of Wisden and Morris (1994).
Compound,"parvalbumin mRNA, prelimbic region of the prefrontal cortex","parvalbumin mRNA, ventral reticular nucleus of the thalamus"
O=C(CCCN1CCC(O)(c2ccc(Cl)cc2)CC1)c1ccc(F)cc1 [haloperidol],0.0557±0.0022 relative optical density (ROD),0.06199±0.0137 ROD
CN1CCN(C2=Nc3cc(Cl)ccc3Nc3ccccc32)CC1 [clozapine],0.0693±0.0050 relative optical density (ROD),0.6354±0.0173 ROD
